In one experiment the test system is guinea pig ileum (GPI). It is filed as cell-based.
For another experiment, the system named is mouse vas deferens (MVD). It is filed as cell-based.
For another experiment, the target named is T1, δ-opioid receptor (Rattus norvegicus, UniProt P33533).
T1 construct: displacement of the radioligands from the rat brain membrane preparations; from tissue; host or cells: rat brain membrane preparations
The format is binding. The note with it: read-out: [3H]HSLET Ki^δ.

Amino acid sequences for entries named in this document (tags omitted). A change or cut given only in a name is not applied to a line headed by its entry.
UniProt P33533, whole entry: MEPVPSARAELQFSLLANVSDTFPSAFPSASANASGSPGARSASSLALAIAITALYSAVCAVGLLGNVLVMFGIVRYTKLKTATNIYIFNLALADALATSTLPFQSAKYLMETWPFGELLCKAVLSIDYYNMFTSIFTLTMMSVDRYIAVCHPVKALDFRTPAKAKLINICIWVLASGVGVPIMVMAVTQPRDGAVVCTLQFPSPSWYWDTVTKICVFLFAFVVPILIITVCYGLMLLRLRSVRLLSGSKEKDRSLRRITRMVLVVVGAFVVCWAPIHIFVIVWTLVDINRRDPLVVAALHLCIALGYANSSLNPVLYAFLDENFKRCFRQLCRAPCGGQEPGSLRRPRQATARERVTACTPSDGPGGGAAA

This note sets out measurements from patent publication US5602100A, “Dermorphin analogs having pharmacological activity” (priority 1988, dated 1997).

For orientation: Ki means the dissociation constant of the complex between target and ligand, obtained from inhibition or displacement. “H-Tyr-D-Ala-Gly-Phe(NMe)-Gly-ol [DAGO, reference compound]”: in the experiment on guinea pig ileum (GPI), the GPI relative potency is 8.69 ± 1.14. Further, the MVD relative potency with mouse vas deferens (MVD) is recorded as 0.0120 ± 0.0034. For the same substance, the inhibition constant Ki on δ-opioid receptor worked out at 1280 nM.
